Consider 1 compound from paper PMC4301037, “Identification and Structure–Function Analysis of Subfamily Selective G Protein-Coupled Receptor Kinase Inhibitors” (ACS Chemical Biology, 2014).

Sequences of proteins named here, by UniProt entry; tags and fusion partners are left off.
UniProt P43249, whole entry: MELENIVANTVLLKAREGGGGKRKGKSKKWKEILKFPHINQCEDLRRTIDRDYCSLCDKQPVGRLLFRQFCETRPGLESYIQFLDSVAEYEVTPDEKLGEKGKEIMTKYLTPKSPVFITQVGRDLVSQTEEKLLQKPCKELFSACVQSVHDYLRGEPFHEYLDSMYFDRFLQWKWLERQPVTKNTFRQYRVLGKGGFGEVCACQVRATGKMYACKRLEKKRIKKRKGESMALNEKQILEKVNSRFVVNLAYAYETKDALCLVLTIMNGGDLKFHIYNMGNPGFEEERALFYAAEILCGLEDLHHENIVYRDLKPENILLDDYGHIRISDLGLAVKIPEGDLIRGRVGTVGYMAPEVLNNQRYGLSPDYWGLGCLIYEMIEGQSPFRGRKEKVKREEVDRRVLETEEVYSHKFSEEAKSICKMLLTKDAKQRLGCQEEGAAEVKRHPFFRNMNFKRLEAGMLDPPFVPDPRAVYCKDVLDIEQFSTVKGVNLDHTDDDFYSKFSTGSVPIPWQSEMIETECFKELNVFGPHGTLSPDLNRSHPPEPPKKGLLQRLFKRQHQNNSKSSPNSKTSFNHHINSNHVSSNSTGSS

One assay deals with T1, GRK2 (Bos taurus, UniProt P21146, S670A).
T1 construct: made in house
T1 sequence (P21146 1-689 S670A): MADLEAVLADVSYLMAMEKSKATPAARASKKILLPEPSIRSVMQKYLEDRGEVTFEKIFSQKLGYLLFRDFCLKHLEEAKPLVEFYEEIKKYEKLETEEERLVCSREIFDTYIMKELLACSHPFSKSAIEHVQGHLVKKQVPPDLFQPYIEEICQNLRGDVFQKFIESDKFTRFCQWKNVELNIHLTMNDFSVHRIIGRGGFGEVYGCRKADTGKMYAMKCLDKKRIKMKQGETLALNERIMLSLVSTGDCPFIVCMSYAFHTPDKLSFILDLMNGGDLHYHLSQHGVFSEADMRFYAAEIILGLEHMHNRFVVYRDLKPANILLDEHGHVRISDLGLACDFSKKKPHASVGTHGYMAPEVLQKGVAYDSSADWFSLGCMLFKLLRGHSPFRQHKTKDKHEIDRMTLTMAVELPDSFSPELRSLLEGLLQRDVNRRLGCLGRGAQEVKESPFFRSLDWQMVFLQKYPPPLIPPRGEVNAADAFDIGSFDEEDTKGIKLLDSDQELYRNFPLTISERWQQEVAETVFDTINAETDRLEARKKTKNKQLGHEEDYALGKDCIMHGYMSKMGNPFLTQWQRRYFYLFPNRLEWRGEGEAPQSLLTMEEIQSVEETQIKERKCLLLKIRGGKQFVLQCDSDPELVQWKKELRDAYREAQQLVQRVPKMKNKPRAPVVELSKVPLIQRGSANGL
Put plainly: In vitro phosphorylation assay (tubulin, 5 μM ATP), GRK2. The assay is classed as biochemical, bovine.

In a further assay the target is T2, GRK5 (Bos taurus, UniProt P43249).
T2 construct: when using full-length kinases as the receptor[37] instead of isolated kinase domains; made in house
Briefly: In vitro phosphorylation assay (tubulin, 5 μM ATP), GRK5. The assay is classed as biochemical, bovine.

What is called IC50 is the concentration that inhibits the measured activity by half. Lower therefore signals higher potency. With `COc1cc2c(cc1Nc1nc(Nc3ccsc3C(N)=O)c3cc[nH]c3n1)N(C(=O)CN(C)C)CCC2(C)C` [GSK2163632A], the concentration for half-maximal inhibition (IC50) against GRK2 was found to be 20 µM; against GRK5 it was 3.16 µM.
